Measured values taken from paper PMC9735595, “Advanced EPI-X4 Derivatives Covalently Bind Human Serum Albumin Resulting in Prolonged Plasma Stability” (International Journal of Molecular Sciences, 2022).

Tests used:
[1] = Functional plasma stability assay (remaining activity in CXCR4 antibody competition after incubation in plasma); type: in vitro ADME; conditions: whole human plasma, 37 °C; antibody competition read-out; at least three rounds of plasma incubation
Procedure: Figure 1 Half-lives of EPI-X4 WSC02 and EPI-X4 JM#21 in human plasma measured by a flow cytometry-based functional assay and mass spectrometry. For the functional assay, WSC02 (a) or JM#21 (b) were spiked into human plasma and incubated at 37 °C. At indicated time points, aliquots were taken and serially diluted in cold PBS. Then, plasma/peptide dilutions were added to CXCR4 expressing SupT1 cells together with a constant concentration of APC-conjugate ECL2-CXCR4 specific antibody 12G5. After 2 h, unbound antibody was removed, and cells were analyzed by flow cytometry. Remaining activity was determined described before. For detection by mass spectrometry, WSC02 (a) or JM#21 (b) were spiked into plasma and incubated at 37 °C. and analyzed in LC-MS/MS. Half-lives were calculated using a one-phase decay model in GraphPad Prism. Curve fits are shown as dashed lines. Data shown are derived from 3 individual rounds of plasma incubation ± SEM. […]
Competition of compounds with an APC-labeled antibody specific for ECL2 of CXCR4 (clone 12G5) was performed in SupT1 cells as described. […] After 2 h at 4 °C, unbound antibody was removed and cells analyzed in flow cytometry (CytoFLEX, Beckman Coulter). Mean fluorescence signals (MFI) in the presence of PBS only was set 100%. […] Half-maximal inhibitory concentrations (IC50) were calculated in GraphPad Prism by nonlinear regression. […]

[2] = due to interaction with FcRn; cited from earlier work
Excerpt: HSA is a 585 amino acid residues long protein with concentrations ranging from 35 to 50 g/L in plasma. […] HSA carries 17 disulfide bridges and a single free Cys residue (Cys34). Cys34 is the ...

Substance | activity over time in human plasma (in words) [1] | in vivo circulation half-life [2]
HSA-JM#21: covalent HSA-EPI-X4 protein-peptide conjugate; JM#21 linked by maleimide-bis-sulfone reagent to the unpaired cysteine of HSA | activity remained constant over time | 
HSA-WSC02: covalent HSA-EPI-X4 protein-peptide conjugate; WSC02 linked by maleimide-bis-sulfone reagent to the unpaired cysteine of HSA | activity remained constant over time | 
HSA: 585 amino acid residues long plasma protein with a single free Cys residue (Cys34) |  | about three weeks
